Yeast mating assay 1: variants of the scFv Ab-14

The target is the same throughout: PDVDLGDISGINAS, from the HR2 region of SARS-CoV-2 spike.

Parent scFv Ab-14: VH joined to VL by a (GGGGS)3 linker. Changes lie in the light chain CDRs alone.
VH: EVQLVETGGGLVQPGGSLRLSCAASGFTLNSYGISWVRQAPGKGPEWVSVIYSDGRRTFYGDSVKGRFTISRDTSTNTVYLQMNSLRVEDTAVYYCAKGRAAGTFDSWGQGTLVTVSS
VL: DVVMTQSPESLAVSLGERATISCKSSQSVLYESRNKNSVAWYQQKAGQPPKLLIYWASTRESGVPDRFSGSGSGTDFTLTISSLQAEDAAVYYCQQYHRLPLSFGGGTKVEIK

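The parent was found by panning a naive human phage display library on the peptide. Variants in AAYL50 differ from the parent at up to three CDR positions; double and triple changes were sampled at random. Affinity was read by AlphaSeq, a pooled yeast mating assay with surface-displayed partners. Pairs that bind mate more often; barcode pairs of the diploids are counted by sequencing. Read counts were normalised to the haploid input and turned into Kd by a linear fit to BCL2-family pairs of known affinity, for each replicate. Mating was done three times.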

Substitutions are numbered in sequence along the VL above, starting at 1 (not Kabat). Values are log10 of the apparent Kd in nM; lower means stronger binding. "n.d." marks a missing value. The strain was present, yet no cells mated with the target were sequenced in that replicate, which points to weak or no binding. Nonspecific signal, from three strains lacking the peptide, appeared in 18% of pairings of library AAYL50, centred on 4.19 (5% of these signals below 2.99); values are not corrected for it.

{"changes": "L30P/Y31Q/R60M", "log10 Kd (nM) by replicate": "n.d. / n.d. / 2.34"}
{"changes": "S28N/W56E/S58W", "log10 Kd (nM) by replicate": "4.11 / n.d. / n.d."}
{"changes": "L30S/W56K/R99T", "log10 Kd (nM) by replicate": "0.05 / 0.37 / 0.27"}
{"changes": "S26A/L100Q/S103L", "log10 Kd (nM) by replicate": "n.d. / 3.06 / n.d."}
{"changes": "K24R/L30S/E32F", "log10 Kd (nM) by replicate": "1.79 / 2.23 / 1.54"}
{"changes": "K36F/A57Y/H98L", "log10 Kd (nM) by replicate": "n.d. / 4.08 / n.d."}
{"changes": "E61P/S62Q/H98K", "log10 Kd (nM) by replicate": "n.d. / n.d. / n.d."}
{"changes": "S28W/L30Q/N35W", "log10 Kd (nM) by replicate": "1.51 / 1.67 / 1.42"}
{"changes": "V39Y/S58C/S62A", "log10 Kd (nM) by replicate": "n.d. / n.d. / n.d."}
{"changes": "L30W/S33R/Y97Q", "log10 Kd (nM) by replicate": "n.d. / 3.86 / 3.59"}
{"changes": "S25L/E61N/P101N", "log10 Kd (nM) by replicate": "n.d. / n.d. / n.d."}
{"changes": "N35G/T59V/R60V", "log10 Kd (nM) by replicate": "1.47 / 1.56 / 1.79"}
{"changes": "V39M/W56S/S62Y", "log10 Kd (nM) by replicate": "0.06 / 0.38 / 0.16"}
{"changes": "S33I/A40C/Q96D", "log10 Kd (nM) by replicate": "n.d. / n.d. / n.d."}
{"changes": "S26I/K36T/S103Q", "log10 Kd (nM) by replicate": "n.d. / 3.74 / 2.99"}
{"changes": "S28L/Q96A/Y97V", "log10 Kd (nM) by replicate": "4.63 / n.d. / n.d."}
{"changes": "N37F/Q95M/S103T", "log10 Kd (nM) by replicate": "1.11 / 1.04 / 1.61"}
{"changes": "A57Q/R60W/Y97H", "log10 Kd (nM) by replicate": "4.15 / n.d. / 3.91"}

Extract of 3 entries:

changes,log10 Kd (nM) by replicate
S28L/Q96A/Y97V,4.63 / n.d. / n.d.
S33I/A40C/Q96D,n.d. / n.d. / n.d.
A57Q/R60W/Y97H,4.15 / n.d. / 3.91

Source: Engelhart et al. 2022 (doi:10.1038/s41597-022-01779-4), MIT Lincoln Laboratory and A-Alpha Bio; data file from the FLAb repository.